Source: ChEMBL document CHEMBL3784966, “Approaching the active conformation of 1,3-diaminopyrimidine based covalent inhibitors of Bruton's tyrosine kinase for treatment of Rheumatoid arthritis” (Bioorg Med Chem Lett, 2016)

Sequences of proteins named here, by UniProt entry; tags and fusion partners are left off. A change or cut given only in a name is not applied to a line headed by its entry.
UniProt Q06187: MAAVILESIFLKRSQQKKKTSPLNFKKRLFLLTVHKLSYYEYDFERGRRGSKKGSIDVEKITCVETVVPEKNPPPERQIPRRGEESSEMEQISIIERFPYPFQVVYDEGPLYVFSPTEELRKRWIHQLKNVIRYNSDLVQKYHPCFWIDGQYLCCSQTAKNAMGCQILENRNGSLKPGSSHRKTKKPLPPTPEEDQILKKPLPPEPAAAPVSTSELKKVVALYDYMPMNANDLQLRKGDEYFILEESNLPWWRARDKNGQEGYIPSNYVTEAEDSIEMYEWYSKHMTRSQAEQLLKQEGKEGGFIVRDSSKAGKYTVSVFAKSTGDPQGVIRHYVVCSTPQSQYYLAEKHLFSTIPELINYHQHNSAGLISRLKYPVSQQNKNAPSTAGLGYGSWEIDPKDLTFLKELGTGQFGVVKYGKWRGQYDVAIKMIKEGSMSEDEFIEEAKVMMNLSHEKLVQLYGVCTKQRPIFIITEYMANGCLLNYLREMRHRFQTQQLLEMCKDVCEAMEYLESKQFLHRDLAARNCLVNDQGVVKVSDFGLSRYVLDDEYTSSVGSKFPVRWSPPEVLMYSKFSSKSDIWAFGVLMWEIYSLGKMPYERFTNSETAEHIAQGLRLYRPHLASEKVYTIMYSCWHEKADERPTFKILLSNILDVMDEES

Target: Tyrosine-protein kinase BTK (Homo sapiens, UniProt Q06187)
Assay: Inhibition of BTK (unknown origin)

IC50: 4.61 nM
Compound: C=CC(=O)Nc1cccc(Nc2nc(Nc3ccc(OCCOC)cc3)ncc2F)c1 [SPEBRUTINIB]
